{
  "source": "patent EP4843994A1",
  "about": "“NOVEL PEPTIDE HAVING MUSCLE FORMATION-PROMOTING ACTIVITY, ANTI-OBESITY ACTIVITY AND ANTI-DIABETIC ACTIVITY AND USES THEREOF” (dated 2026)",
  "key": {"[1]": {"tested_on": "HepG2 cells", "assay": "Expression of adipogenesis and lipolysis related proteins in hepatocytes (Western blot)", "conditions": "500 µM oleic acid, peptide 5 µM, 50 µM, 48 hours", "protocol": "HepG2 cells (human-derived hepatocytes) were cultured in DMEM medium comprising 1% P/S and 10% FBS. When cell confluency reached approximately 70 to 80%, cells were seeded into a 12-well culture plate at a concentration of 1 x 10^5 cells/1 ml. Subsequently, when cell confluency reached approximately 70 to 80% in a 12-well culture plate, the medium was replaced with serum-free DMEM. After 4 hours, lipid accumulation was induced by replacing the medium with serum-free DMEM (1% BSA) supplemented with 500 µM oleic acid (Sigma, St. Louis, MO, USA). After inducing fat accumulation for 24 hours, the cells were cultured for 48 hours with serum-free DMEM (1% BSA) supplemented with 500 µM oleic acid (Sigma, St. Louis, MO, USA) and peptides (5 µM, 50 µM). After culture, lysis buffer was added to lyse the cells, and the cell lysate was centrifuged at 4°C and 12,000 rpm for 30 minutes to obtain the protein. The obtained protein was quantified using a BCA kit. The protein was electrotransferred onto a membrane after performing SDS-PAGE (sodium dodecyl sulfate-polyacrylamide gel electrophoresis). After blocking the protein-attached membrane with 5% skim milk, the membrane was treated with the primary antibody and reacted overnight at 4°C. The primary antibodies used were as follows: anti-SREBP1 antibody (Abcam, UK); anti-FAS antibody (Cell signaling Technology, USA); anti-ATGL antibody (Cell signaling Technology, USA); anti-pHSL antibody (Cell signaling Technology, USA); anti-β-actin antibody (Santa Cruz, USA). The reactant was washed with PBS-T, then the secondary antibodies (Peroxidase-conjugated AffiniPure Goat Anti-Rabbit IgG (H+L), Jackson immunoResearch, USA; Peroxidase-conjugated AffiniPure Goat Anti-Mouse IgG (H+L), Jackson immunoResearch, USA) were reacted at room temperature for 1 hour, washed again with PBS-T, and then visualized using Gel Doc (Bio-Rad, Hercules, CA, USA) by treatment with Western detection reagent (Elpis Biotech, Daejeon, Korea)."}, "[2]": {"tested_on": "C2C12 cells", "assay": "Expression of differentiation markers and muscle protein synthesis signaling proteins in differentiation-induced myoblasts (Western blot)", "conditions": "differentiation medium, peptide 5 µM, 50 µM, three days", "protocol": "C2C12 cells (mouse-derived myoblasts) were cultured in DMEM medium containing 1% P/S and 2% BCS (bovine calf serum). When cell confluency reached 70 to 80%, cells were seeded into 6-well culture plates at a concentration of 5 x 10^5 cells/2 ml. Subsequently, when cell confluency reached 100% in a 6-well culture plate, the differentiation medium (1% P/S, 2% horse serum) and peptide (5 µM, 50 µM) were replaced. Afterward, the differentiation medium (1% P/S, 2% horse serum) and peptide (5 µM, 50 µM) were replaced every two days, and lysis buffer was added to lyse the cells three days after the first replacement. Subsequently, the cell lysate was centrifuged at 4°C and 12,000 rpm for 30 minutes to obtain the protein. The obtained protein was quantified using a BCA kit. The protein was electrotransferred onto a membrane after performing SDS-PAGE (sodium dodecyl sulfate-polyacrylamide gel electrophoresis). After blocking the protein-attached membrane with 5% skim milk, the membrane was treated with the primary antibody and reactioned overnight at 4°C. The primary antibodies used are as follows: anti-α-actinin antibody (Santa Cruz, USA); anti-MyoG antibody (Santa Cruz, USA); anti-Myf6 antibody (Abcam, UK); anti-SIRT1 antibody (Cell Signaling Technology, USA); anti-pAMPKα antibody (Cell Signaling Technology, USA); anti-pAKT antibody (Cell Signaling Technology, USA); anti-pmTOR antibody (Cell Signaling Technology, USA); anti-p70S6 Kinase antibody (Cell Signaling Technology, USA); anti-α-tubulin antibody (Santa Cruz, USA). The reactant was washed with PBS-T, then reacted with secondary antibodies (Peroxidase-conjugated AffiniPure Goat Anti-Rabbit IgG (H+L), Jackson immunoResearch, USA; Peroxidase-conjugated AffiniPure Goat Anti-Mouse IgG (H+L), Jackson immunoResearch, USA) at room temperature for 1 hour, washed again with PBS-T, and then visualized by treatment with a Western detection reagent (Elpis Biotech, Daejeon, Korea) using Gel Doc (Bio-Rad, Hercules, CA, USA)."}, "[3]": {"tested_on": "C2C12 cells", "assay": "Expression of cell proliferation-related marker proteins in myoblasts (Western blot)", "protocol": "C2C12 cells (mouse-derived myoblasts) were cultured in DMEM medium containing 1% P/S and 10% FBS. When cell confluency reached 70 to 80%, cells were seeded into 6-well culture plates at a concentration of 5 x 10^5 cells/2 ml. On the next day, the medium was replaced with serum-free DMEM (1% P/S), and after about 4 hours, was treated with peptides (5 µM, 50 µM). One hour after peptide treatment, cell lysis buffer was added to lyse the cells, and then the proteins were obtained by centrifuging at 4°C and 12,000 rpm for 30 minutes. The obtained proteins were quantified using a BCA kit. The protein was electrotransferred onto a membrane after performing SDS-PAGE (sodium dodecyl sulfate-polyacrylamide gel electrophoresis). The membrane to which the protein was attached was blocked by treatment with 5% skim milk, and then treated with the primary antibody and reacted overnight at 4°C. Anti-SIRT1 antibody (Cell signaling Technology, USA), anti-Ki67 antibody (Santa Cruz, USA), anti-Pax7 antibody (Santa Cruz, USA), anti-pAKT antibody (Cell signaling Technology, USA), and anti-β-actin antibody (Santa Cruz, USA) were used as primary antibodies. After washing the reaction mixture with PBS-T, secondary antibodies (Peroxidase-conjugated AffiniPure Goat Anti-Rabbit IgG (H+L), Jackson immunoResearch, USA; Peroxidase-conjugated AffiniPure Goat Anti-Mouse IgG (H+L), Jackson immunoResearch, USA) were reacted at room temperature for 1 hour and were washed again with PBS-T, the mixture was visualized using Gel Doc (Bio-Rad, Hercules, CA, USA) by treatment with Western detection reagents (Elpis Biotech, Daejeon, Korea)."}, "[4]": {"conditions": "peptide 5 µM and 50 µM for 1 hour"}},
  "data": [
    {"smiles": "C[C@@H](O)[C@H](NC(=O)CNC(=O)[C@@H](N)Cc1c[nH]cn1)C(=O)N[C@@H](Cc1ccc(O)cc1)C(=O)O", "values": [
      {"measurement": "expression level of ATGL protein", "setting": "[1]", "result": "increased again"},
      {"measurement": "expression level of pHSL protein", "setting": "[1]", "result": "increased again"},
      {"measurement": "expression of FAS protein", "setting": "[1]", "result": "decreased again"},
      {"measurement": "expression of SREBP1 protein", "setting": "[1]", "result": "decreased again"},
      {"measurement": "expression of Myf6 protein", "setting": "[2]", "result": "increased in a concentration-dependent manner"},
      {"measurement": "expression of MyoG protein", "setting": "[2]", "result": "increased in a concentration-dependent manner"},
      {"measurement": "expression of SIRT1 protein", "setting": "[2]", "result": "increased in a concentration-dependent manner"},
      {"measurement": "expression of p70S6K protein", "setting": "[2]", "result": "increased in a concentration-dependent manner"},
      {"measurement": "expression of pAKT protein", "setting": "[2]", "result": "increased in a concentration-dependent manner"},
      {"measurement": "expression of pAMPKα protein", "setting": "[2]", "result": "increased in a concentration-dependent manner"},
      {"measurement": "expression of pmTOR protein", "setting": "[2]", "result": "increased in a concentration-dependent manner"},
      {"measurement": "expression of α-actinin protein", "setting": "[2]", "result": "increased in a concentration-dependent manner"},
      {"measurement": "expression level of Ki67 protein", "setting": "[3]; [4]", "result": "increased in a concentration-dependent manner"},
      {"measurement": "expression level of Pax7 protein", "setting": "[3]; [4]", "result": "increased in a concentration-dependent manner"},
      {"measurement": "expression level of SIRT1 protein", "setting": "[3]; [4]", "result": "increased in a concentration-dependent manner"},
      {"measurement": "expression level of pAKT protein", "setting": "[3]; [4]", "result": "increased in a concentration-dependent manner"},
      {"measurement": "expression level of Pax7 protein compared to the control group", "setting": "[3]; peptide 5 µM for 1 hour", "result": 2.6, "unit": "fold"},
      {"measurement": "expression level of Pax7 protein compared to the control group", "setting": "[3]; peptide 50 µM for 1 hour", "result": 3.8, "unit": "fold"}
    ]}
  ]
}
